Patent US20260124309A1, “STAT6 DEGRADERS AND USES THEREOF” (Kymera Therapeutics, Inc., priority 2023, published 2026)

Amino acid sequences for entries named in this document (tags omitted). Residues count along the entry.
UniProt P42226, whole entry: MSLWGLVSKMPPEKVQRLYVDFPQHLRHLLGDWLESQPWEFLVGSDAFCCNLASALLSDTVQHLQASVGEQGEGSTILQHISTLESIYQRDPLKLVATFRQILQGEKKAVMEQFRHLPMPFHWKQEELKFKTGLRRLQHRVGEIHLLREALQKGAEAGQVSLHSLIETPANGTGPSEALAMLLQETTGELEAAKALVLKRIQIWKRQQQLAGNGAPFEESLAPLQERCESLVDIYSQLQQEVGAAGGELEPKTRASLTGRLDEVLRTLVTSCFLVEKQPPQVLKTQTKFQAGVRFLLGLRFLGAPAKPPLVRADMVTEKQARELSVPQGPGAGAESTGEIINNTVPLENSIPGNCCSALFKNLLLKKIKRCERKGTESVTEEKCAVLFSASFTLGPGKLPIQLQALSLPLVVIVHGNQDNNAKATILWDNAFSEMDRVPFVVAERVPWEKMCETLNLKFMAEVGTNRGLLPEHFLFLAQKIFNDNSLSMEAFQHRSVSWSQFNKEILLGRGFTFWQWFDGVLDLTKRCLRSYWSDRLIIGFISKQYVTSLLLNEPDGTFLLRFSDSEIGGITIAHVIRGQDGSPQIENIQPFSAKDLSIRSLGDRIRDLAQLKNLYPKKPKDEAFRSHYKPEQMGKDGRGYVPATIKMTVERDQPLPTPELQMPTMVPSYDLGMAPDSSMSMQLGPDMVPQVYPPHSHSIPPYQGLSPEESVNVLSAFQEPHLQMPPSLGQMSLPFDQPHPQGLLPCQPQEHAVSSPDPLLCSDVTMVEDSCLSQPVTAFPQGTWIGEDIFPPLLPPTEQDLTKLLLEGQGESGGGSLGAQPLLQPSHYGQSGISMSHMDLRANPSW
UniProt P42226, 123-632 limits assumed: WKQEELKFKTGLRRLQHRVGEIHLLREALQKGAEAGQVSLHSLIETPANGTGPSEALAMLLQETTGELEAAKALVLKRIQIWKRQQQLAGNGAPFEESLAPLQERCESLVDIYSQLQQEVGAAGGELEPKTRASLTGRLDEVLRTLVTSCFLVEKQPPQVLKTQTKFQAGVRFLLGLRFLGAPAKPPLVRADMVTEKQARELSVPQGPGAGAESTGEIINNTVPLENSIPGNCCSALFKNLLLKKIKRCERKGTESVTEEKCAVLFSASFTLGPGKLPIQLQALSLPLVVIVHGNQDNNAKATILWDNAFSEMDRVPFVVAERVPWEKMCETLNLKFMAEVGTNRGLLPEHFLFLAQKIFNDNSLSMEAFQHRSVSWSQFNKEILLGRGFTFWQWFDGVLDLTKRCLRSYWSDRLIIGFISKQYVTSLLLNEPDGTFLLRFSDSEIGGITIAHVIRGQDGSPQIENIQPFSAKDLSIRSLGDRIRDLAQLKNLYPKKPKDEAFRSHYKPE

How the values were obtained:
STAT6 = STAT6 (Homo sapiens, UniProt P42226); assay: STAT6 MSD degradation in A549 cells; conditions: for DC50: read-out: STAT6 MSD degradation DC50 (nM) 24 h
Outline: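 A549 cells treated with a 9-point 1:3 series (top up to 10 uM) for 4 to 24 hours at 37° C., then lysed in RIPA. STAT6 quantified by sandwich MSD electrochemiluminescence immunoassay. DC50 and Dmax from four-parameter nonlinear fit, reported as letter-code bins.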

[1] = target: biotinylated truncated STAT6 (123-632)-avi (Homo sapiens, UniProt P42226); assay: STAT6 HTRF binding assay; conditions: read-out: STAT6 HTRF: Average IC50, 0.15 nM biotinylated truncated STAT6 (123-632)-avi, 20 nM fluorescein-labeled probe
STAT6-HiBiT = STAT6-HiBiT (Homo sapiens, UniProt P42226); assay: STAT6 HiBiT degradation in A549 (STAT6-HiBiT) cells; conditions: for DC50: read-out: STAT6 HiBiT degradation DC50 (nM) 24 h

Row | SMILES | STAT6 MSD degradation Dmax % 24 h (STAT6) | DC50 (STAT6) [nM] | pIC50 ([1]; HTRF binding) | STAT6 HiBiT degradation Dmax % 24 h (STAT6-HiBiT) | DC50 (STAT6-HiBiT) [nM] | pIC50 ([1]; 30 minutes at room temperature)
1 | CN(C)C(=O)c1cc2c(-c3ccc(C4CCN(c5ccc(C6CCC(=O)NC6=O)cc5F)CC4)c(F)c3F)cc(C3=CCCN(C(=O)CCn4cccn4)C3)c(F)c2[nH]1 (centres unmarked) | A (A (>90%)) | < 1 | 6.00 to 7.00 | A (A (>90%)) | < 1 | 
2 | CN(C)C(=O)c1cc2c(-c3cc(F)c(N4CCN(C5CCN(c6ccc(C7CCC(=O)NC7=O)cc6F)CC5)CC4)cc3F)cc(C3=CCCN(C(=O)CCn4cccn4)C3)c(F)c2[nH]1 (centres unmarked) | A (A (>90%)) | < 1 | > 7.00 | A (A (>90%)) | < 1 | 
3 | CN(C)C(=O)c1cc2c(-c3ccc(N4CCN(CCCc5cccc6c5n(C)c(=O)n6C5CCC(=O)NC5=O)CC4)cc3)cc(C3=CCCN(C(=O)CCn4ccnn4)C3)cc2[nH]1 (centres unmarked) | A (A (>90%)) | < 1 |  | A (A (>90%)) | < 1 | > 7.00
4 | COc1cc(N2CCN(CCc3ccc(C4CCC(=O)NC4=O)cc3F)CC2)ccc1-c1cc(C2=CCCN(C(C)=O)C2)c(F)c2[nH]c(C(=O)N(C)C)cc12 (centres unmarked) | B (B (>70-90%)) | 1 to 10 |  | A (A (>90%)) | 1 to 10 | > 7.00
5 | CN(C)C(=O)c1cc2c(-c3ccc(C4CCN(c5ccc(C6CCC(=O)NC6=O)cc5F)CC4)cc3F)cc(C3=CCCN(C(=O)CCn4cccn4)C3)c(F)c2[nH]1 (centres unmarked) | A (A (>90%)) | < 1 | > 7.00 | A (A (>90%)) |  | 
6 | CN(C)C(=O)c1cc2c(-c3ccc(N4CCC5(CC4)CN(c4ccc(C(=O)NC6CCC(=O)NC6=O)c(F)c4)C5)cc3)cc(C3=CCCN(C(=O)CCn4cccn4)C3)c(F)c2[nH]1 (centres unmarked) | B (B (>70-90%)) | < 1 | > 7.00 | A (A (>90%)) | < 1 | 
7 | CC(C)C(=O)N1CCC=C(c2cc(-c3ccc(N4CCN(CCc5cccc6c5n(C)c(=O)n6C5CCC(=O)NC5=O)CC4)cc3Cl)c3cc(C(=O)N(C)C)[nH]c3c2F)C1 (centres unmarked) | A (A (>90%)) | < 1 | 5.00 to 6.00 | A (A (>90%)) | < 1 | 
8 | Cc1cc(C2CCN(c3ccc(C4CCC(=O)NC4=O)cc3F)CC2)ccc1-c1cc(C2=CCCN(C(=O)CCn3cccn3)C2)c(F)c2[nH]c(C(=O)N(C)C)cc12 (centres unmarked) | A (A (>90%)) | < 1 | > 7.00 | A (A (>90%)) |  | 
9 | CC(=O)N1CCC=C(c2cc(-c3ccc(N4CCN(CCc5cccc6c5n(C)c(=O)n6C5CCC(=O)NC5=O)CC4)cc3OC(F)(F)F)c3cc(C(=O)N(C)C)[nH]c3c2F)C1 (centres unmarked) | A (A (>90%)) | < 1 |  | A (A (>90%)) |  | 6.00 to 7.00
10 | CN(C)C(=O)c1cc2c(-c3ccc(N4CCC(c5ccc(C6CCC(=O)NC6=O)cc5F)CC4)c(F)c3F)cc(C3=CCCN(C(=O)CCn4ccnn4)C3)c(F)c2[nH]1 (centres unmarked) | A (A (>90%)) | < 1 | > 7.00 | A (A (>90%)) | < 1 | 
11 | CN(C)C(=O)c1cc2c(F)c(C3=CCCN(C(=O)CCn4cccn4)C3)cc(-c3ccc(N4CCN(CCc5ccc(C6CCC(=O)NC6=O)cc5F)CC4)cc3)c2o1 (centres unmarked) | B (B (>70-90%)) | 1 to 10 |  | A (A (>90%)) |  | 6.00 to 7.00
12 | Cc1nn(C2CCC(=O)NC2=O)c2cccc(CCN3CCN(c4cc(Cl)c(-c5cc(C6=CCCN(C(=O)CCn7cccn7)C6)c(F)c6[nH]c(C(=O)N(C)C)cc56)cc4F)CC3)c12 (single isomer, unassigned) [Example I-1079] | A (A (>90%)) | < 1 | > 7.00 | A (A (>90%)) |  | 
13 | CN(C)C(=O)c1cc2c(-c3cc(F)c(N4CCN(CCc5cccc6c(C7CCC(=O)NC7=O)nn(C)c56)CC4)cc3Cl)cc(C3=CCCN(C(=O)CCn4cccn4)C3)c(F)c2[nH]1 (centres unmarked) | A (A (>90%)) | < 1 | > 7.00 | A (A (>90%)) |  | 
14 | COc1cc(N2CCN(CCc3ccc(C4CCC(=O)NC4=O)c(Cl)c3)CC2)ccc1-c1cc(C2=CCCN(C(C)=O)C2)c(F)c2[nH]c(C(=O)N(C)C)cc12 (centres unmarked) | B (B (>70-90%)) | 1 to 10 |  | A (A (>90%)) | 1 to 10 | > 7.00
15 | CN(C)C(=O)c1cc2c(-c3ccc(N4CCN(C5CCN(c6ccc(C7CCC(=O)NC7=O)cc6F)CC5)CC4)c(F)c3F)cc(C3=CCCN(C(=O)CCn4cccn4)C3)c(F)c2[nH]1 (centres unmarked) | A (A (>90%)) | < 1 | > 7.00 | A (A (>90%)) |  | 
16 | CN(C)C(=O)c1cc2c(-c3ccc(C4CCN(c5cc(F)c(C6CCC(=O)NC6=O)cc5F)CC4)cc3)cc(C3=CCCN(C(=O)CCn4cccn4)C3)c(F)c2[nH]1 (centres unmarked) | A (A (>90%)) | < 1 | > 7.00 | A (A (>90%)) | < 1 | 
17 | CN(C)C(=O)c1cc2c(-c3ccc(C4CCN(c5ccc(C6CCC(=O)NC6=O)cc5F)CC4)c(F)c3)cc(C3=CCCN(C(=O)CCn4cccn4)C3)c(F)c2[nH]1 (centres unmarked) | A (A (>90%)) | < 1 | 6.00 to 7.00 | A (A (>90%)) | < 1 | 
18 | CN(C)C(=O)c1cc2c(-c3cc(F)c(N4CCC(N5CCC(c6ccc(C7CCC(=O)NC7=O)cc6F)CC5)CC4)cc3F)cc(C3=CCCN(C(=O)CCn4cccn4)C3)c(F)c2[nH]1 (centres unmarked) | B (B (>70-90%)) | < 1 | > 7.00 | A (A (>90%)) | < 1 | 
19 | CN(C)C(=O)c1cc2c(-c3cc(F)c(N4CCC(N5CCN(c6ccc(C7CCC(=O)NC7=O)cc6F)CC5)CC4)cc3F)cc(C3=CCCN(C(=O)CCn4cccn4)C3)c(F)c2[nH]1 (centres unmarked) | A (A (>90%)) | < 1 | > 7.00 | A (A (>90%)) |  | 
20 | Cc1nn(C2CCC(=O)NC2=O)c2cccc(CCN3CCN(c4cc(F)c(-c5cc([C@H]6CCCN(C(=O)CCn7cccn7)C6)c(F)c6[nH]c(C(=O)N(C)C)cc56)cc4F)CC3)c12 (some centres unmarked) | A (A (>90%)) | < 1 | > 7.00 | A (A (>90%)) | < 1 | 

pIC50: −log10 of the molar value. Where two headings read alike, the source gives them in different places.
